Experimental data published in patent publication US20260199297A1, “FERROPTOSIS INDUCERS TO TREAT CANCER” (The University of Toledo, priority 2022, published 2026).

Tested on: 60 human cancer cell lines
Test: NCI 60 human cancer cell line assay, single dose
Type: cell-based
Conditions: single dose of 10 μM, 60 cell lines
Experimental: The cell lines used in this assay belonged to leukemia, non-small-cell lung cancer, colon cancer, CNS cancer, melanoma, ovarian cancer, renal cancer, prostate cancer, and breast cancer. The compounds were first tested at a single dose of 10 μM.

## C#Cc1nc(C2=C(C)C(O)CC2)cs1 (racemic) [CETZOLE 1, 3-(2-Ethynylthiazol-4-yl)-2-methylcyclopent-2-en-1-ol, reference compound]
  mean percentage growth: least cytotoxic
